From PubChem BioAssay AID828 (The Scripps Research Institute Molecular Screening Center, 2007) come the findings set out here.

Sequences of proteins named here, by UniProt entry; tags and fusion partners are left off.
UniProt O43603, whole entry: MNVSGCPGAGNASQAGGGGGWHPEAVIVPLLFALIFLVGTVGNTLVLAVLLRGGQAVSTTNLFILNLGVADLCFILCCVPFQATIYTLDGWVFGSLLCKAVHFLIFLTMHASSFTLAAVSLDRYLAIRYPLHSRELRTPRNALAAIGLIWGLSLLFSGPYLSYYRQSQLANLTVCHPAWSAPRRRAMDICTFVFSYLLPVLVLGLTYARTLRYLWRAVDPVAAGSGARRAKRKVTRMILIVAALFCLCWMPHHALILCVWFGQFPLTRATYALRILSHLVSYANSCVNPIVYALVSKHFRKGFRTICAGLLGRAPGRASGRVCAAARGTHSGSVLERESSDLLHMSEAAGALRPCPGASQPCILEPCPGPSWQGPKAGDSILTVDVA

The entries are a selection whose mix differs from that of the whole data set. The source made the active and inactive calls. Rule as the data show it: active = inhibition above about 27%; inactive = the rest.

The experiment deals with Galanin receptor type 2 (Homo sapiens) (UniProt O43603). The experiment in a line: blockers of human galanin receptor 2 – cell-based, primary screen (AID 828).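 Also: cells stimulated with galanin 1-16 at roughly its EC80; 0% = agonist challenge control and 100% = basal control without agonist.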 As to conditions: GALR2-expressing cells, antagonist mode; at 4 µM; active compounds read high.
Regarding `CCN(N=Nc1nonc1N)c1nonc1N`, the inhibition is inactive: 1.74%.

In general, inhibition refers to the relative decrease from the control value, in per cent.
